From patent US11046713B2, “Androgen receptor modulating compounds” (ORION CORPORATION, priority 2009, dated 2021)

What follows are molecules tested on VCaP prostate cancer cell line (assay: Inhibition of mibolerone-induced VCaP cell proliferation (WST-1)). Conditions: Homo sapiens, mibolerone-induced (usually 0.1 nM), 4-5 days.
Assay type: cell-based
Protocol: The IC50 value of the test compound for inhibition of mibolerone-induced VCaP cell proliferation was measured.
Cell Proliferation Assays
The ability of test compounds to inhibit prostate cancer cell growth was studied by measuring inhibition of cell proliferation using androgen-sensitive VCaP prostate cancer cell line. […] Cell proliferation was measured using WST-1 Cell Proliferation Assay (Roche).

SMILES | IC50 [nM]
CC(=O)c1cc(C(=O)NC[C@H](C)n2ccc(-c3cc(F)c(C#N)c(F)c3)n2)[nH]n1 [Example 219, (S)-3-acetyl-N-(2-(3-(4-cyano-3,5-difluorophenyl)-1H-pyrazol-1-yl)propyl)-1H-pyrazole-5-carboxamide] | 1400
CC(=O)c1cc(C(=O)N[C@@H](C)Cn2ccc(-c3ccc(C#N)c(Cl)c3)n2)[nH]n1 [Example 34, (S)-3-acetyl-N-(1-(3-(3-chloro-4-cyanophenyl)-1H-pyrazol-1-yl)propan-2-yl)-1H-pyrazole-5-carboxamide] | 600
CC(O)c1cc(C(=O)N[C@@H](C)Cn2ccc(-c3ccc(C#N)c(Cl)c3)n2)[nH]n1 (stereo partly drawn) [Example 56, N—((S)-1-(3-(3-chloro-4-cyanophenyl)-1H-pyrazol-1-yl)-propan-2-yl)-3-(1-hydroxyethyl)-1H-pyrazole-5-carboxamide] | 400
